{"sequences": {"note": "Amino acid sequences for entries named in this document (tags omitted).", "UniProt A0AAD7YHG5, entry or part of it": "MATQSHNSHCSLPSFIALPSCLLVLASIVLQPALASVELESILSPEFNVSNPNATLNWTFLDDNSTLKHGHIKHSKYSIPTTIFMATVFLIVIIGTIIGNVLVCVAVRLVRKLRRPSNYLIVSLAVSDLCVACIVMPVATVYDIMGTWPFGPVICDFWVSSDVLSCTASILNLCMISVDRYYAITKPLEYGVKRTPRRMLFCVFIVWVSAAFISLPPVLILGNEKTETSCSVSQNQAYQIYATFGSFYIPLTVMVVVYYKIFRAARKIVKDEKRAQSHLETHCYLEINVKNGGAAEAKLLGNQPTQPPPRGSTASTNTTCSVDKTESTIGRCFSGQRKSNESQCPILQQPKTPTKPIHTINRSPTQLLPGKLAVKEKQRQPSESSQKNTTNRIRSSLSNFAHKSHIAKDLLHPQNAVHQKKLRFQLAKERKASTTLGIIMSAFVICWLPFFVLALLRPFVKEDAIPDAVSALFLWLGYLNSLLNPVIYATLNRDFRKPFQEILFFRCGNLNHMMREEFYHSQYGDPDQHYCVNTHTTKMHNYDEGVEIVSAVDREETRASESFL", "UniProt A0AAD7YHG5, entry or part of it DEL320-414": "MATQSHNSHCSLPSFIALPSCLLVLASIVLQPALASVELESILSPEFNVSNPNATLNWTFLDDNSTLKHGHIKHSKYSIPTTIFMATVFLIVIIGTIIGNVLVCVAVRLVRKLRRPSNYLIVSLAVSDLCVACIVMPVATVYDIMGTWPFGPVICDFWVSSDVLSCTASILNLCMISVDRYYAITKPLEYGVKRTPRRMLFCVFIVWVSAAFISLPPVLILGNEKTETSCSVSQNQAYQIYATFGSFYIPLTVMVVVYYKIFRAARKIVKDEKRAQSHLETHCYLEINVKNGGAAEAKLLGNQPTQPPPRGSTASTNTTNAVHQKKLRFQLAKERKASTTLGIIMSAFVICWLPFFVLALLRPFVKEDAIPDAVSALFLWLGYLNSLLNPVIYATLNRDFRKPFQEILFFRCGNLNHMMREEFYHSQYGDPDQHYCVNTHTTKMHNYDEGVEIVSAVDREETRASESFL"}, "source": "paper PMC9820646", "about": "“Identification and Pharmacological Characterization of Two Serotonin Type 7 Receptor Isoforms from Mythimna separata” (International Journal of Molecular Sciences, 2022)", "key": {"Msep5-HT7L receptor": {"target": "Msep5-HT7L receptor (Mythimna separata, UniProt A0AAD7YHG5)", "assay": "cAMP assay, agonist activation of Msep5-HT7L in stably transfected HEK293 cells", "assay_type": "cell-based", "description": "(§1) HEK-293 cells were cultured in D-MEM (Gibco BRL, Gaithersburg, MD, USA) supplemented with 10% FBS (Gibco BRL, Gaithersburg, MD, USA) at 37 °C and 5% CO2. Four microgram recombinant plasmids with 10 μL of lipofectamine 2000 (Invitrogen, Carlsbad, CA, USA) were introduced into exponentially growing HEK 293 cells. The 0.8 mg/mL antibiotic G418 (Sigma, St. Louis, MO, USA) was added to the medium to select for cells that were stably expressed the Msep5-HT7 receptors. After fourteen days of G418 selection, three G418-resistant colonies were trypsinized in cloning cylinders and transferred to 12-well plastic plates for expansion.\n(§2) Intracellular cAMP concentrations were measured as previously described. Briefly, when cells were cultured for 2 days to the concentration of 1 × 10^6 cells/mL, culture media were removed and the cells were washed two times with cold PBS (pH 7.4), then the cells were preincubated in 450 μL of Dulbecco’s phosphate-buffered solution (DPBS) containing 100 μM phosphodiesterase inhibitor 3-isobutyl-1-methylxanthine (IBMX) for 20 min at room temperature. After the preincubation, 50 μL of DPBS, containing various concentrations of reagents, was added into the stable transfected cells for incubation for 30 min at 37 °C. The cells were washed three times with cold PBS (pH 7.4) and then lysed in 250 μL of cold cell lysis buffer by re-freezing. The cell debris was removed by centrifugation at 600× g for 10 min at 4 °C. The amount of intracellular cAMP extracted from harvested supernatant was determined using an ELISA reagent (R&D Systems, Minneapolis, MN, USA). Each measurement was performed in duplicate, and three independent assays were carried out for each reagent and concentration tested."}, "Msep5-HT7S receptor": {"target": "Msep5-HT7S receptor (Mythimna separata, UniProt A0AAD7YHG5, DEL320-414)", "assay": "cell-based", "description": "as §1, §2"}}, "note": "Where a name gives a salt, the structure may show the parent alone."}
{"smiles": "NCCc1c[nH]c2ccc(O)cc12", "note": "[5-HT, serotonin hydrochloride]", "values": [{"measurement": "EC50", "setting": "Msep5-HT7L receptor; EC50, 5-HT7L, cAMP production, HEK-293 cells", "result": 92, "unit": "nM"}, {"measurement": "EC50", "setting": "Msep5-HT7L receptor; Half-maximal stimulation (EC50) of cAMP production, Msep5-HT7L-expressing cells", "result": 92.4, "unit": "nM"}, {"measurement": "EC50", "setting": "Msep5-HT7L receptor; logEC50 (Mean ± SEM), 5-HT7L, cAMP production, HEK-293 cells, given as negative log value", "result": 93.3, "unit": "nM"}, {"measurement": "EC50", "setting": "Msep5-HT7S receptor; EC50, 5-HT7S, cAMP production, HEK-293 cells", "result": 35, "unit": "nM"}, {"measurement": "EC50", "setting": "Msep5-HT7S receptor; Half-maximal stimulation (EC50) of cAMP production, Msep5-HT7S-expressing cells", "result": 35.1, "unit": "nM"}, {"measurement": "EC50", "setting": "Msep5-HT7S receptor; logEC50 (Mean ± SEM), 5-HT7S, cAMP production, HEK-293 cells, given as negative log value", "result": 34.7, "unit": "nM"}]}
